PubChem BioAssay (Tox21)
Where “and” joins values, the source holds several entries; their conditions need not be identical. Equal values may be shown once. This is a selection; strong and weak results do not stand in their true shares. Inconclusive results are not listed. Calls of active or inactive are those of the source. The call rests on the fitted dose curve; in most records, active means well fitted cell-killing curve with a large enough effect in the repeat runs; inconclusive means weak or mixed curves, or effect the other way; inactive means flat fitted curve, though single readings scatter.

Experiment: cAMP Responsive Elements (CRE) small molecule antagonists, cell-based qHTS assay: qHTS cell viability counter screen (AID 2060913); further: nearly all actives have a fitted effect of over 40% in size
Settings: CRE-bla HEK293T viability, CellTiter-Glo luminescence, 5 h; at 92.4 µM (top of the series) unless noted
How it was run: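 Viability of NKH477-stimulated (0.25 uM final) CRE-bla HEK293T cells is measured by CellTiter-Glo luminescence following 3 hrs compound exposure at 37 C.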
On the % scale 0 is the no-effect control and ±100 the full control effect.

SMILES	viability change, negative = cytotoxic
O=[N+]([O-])OCC(CO[N+](=O)[O-])(CO[N+](=O)[O-])CO[N+](=O)[O-]	inactive: 4.84%
Cc1ccc([N+](=O)[O-])c([N+](=O)[O-])c1	inactive: 0.61% and inactive: -0.0987%
Cc1ccc([N+](=O)[O-])cc1[N+](=O)[O-]	inactive: -12.7% and inactive: -3.19%
Cc1cccc([N+](=O)[O-])c1[N+](=O)[O-]	inactive: -6.6% [at 42.5 µM]
COP(C)(=O)OC	inactive: -3.93% and inactive: -2.12%
CC(C)OP(C)(=O)OC(C)C	inactive: 1.29% and inactive: -0.0428%
CCOP(=O)(CC)OCC	inactive: 9.13%
O=[N+]([O-])[O-].[NH4+]	inactive: -0.371% and inactive: -1.62%
CN(C)CCCl	inactive: 4.3%
CCN(CC)CCCl	inactive: 0.195%
N#CBr	inactive: 11.4%
CC(C)N(CCO)C(C)C	inactive: 2.19%
N=C(N)N[N+](=O)[O-]	inactive: 7.2%
CCOP(=O)(CC)Oc1ccc([N+](=O)[O-])cc1 (stereo not given)	inactive: -14.3% [at 42.5 µM]
C/C1=C2N=C(/C=C3N=C(/C(C)=C4\[N-][C@@](C)([C@@H]5N=C1[C@](C)(CCC(=O)NC[C@@H](C)OP(=O)([O-])O[C@H]1[C@@H](O)[C@@H](n6cnc7cc(C)c(C)cc76)O[C@@H]1CO)[C@H]5CC(N)=O)[C@@](C)(CC(N)=O)[C@@H]4CCC(N)=O)[C@@](C)(CC(N)=O)[C@@H]\3CCC(N)=O)C(C)(C)[C@@H]/2CCC(N)=O.[C-]#N.[Co+3]	inactive: 1.7% [at 42.5 µM]
